Source: ChEMBL document CHEMBL3351789, “Triazolopyridines as selective JAK1 inhibitors: from hit identification to GLPG0634” (J Med Chem, 2014)
pIC50: −log10 of the molar value.

By UniProt entry, the sequences of proteins in these tests, tags left out. Where a name states a change or a piece, a line headed by the entry shows the natural chain unless it says otherwise.
UniProt P23458: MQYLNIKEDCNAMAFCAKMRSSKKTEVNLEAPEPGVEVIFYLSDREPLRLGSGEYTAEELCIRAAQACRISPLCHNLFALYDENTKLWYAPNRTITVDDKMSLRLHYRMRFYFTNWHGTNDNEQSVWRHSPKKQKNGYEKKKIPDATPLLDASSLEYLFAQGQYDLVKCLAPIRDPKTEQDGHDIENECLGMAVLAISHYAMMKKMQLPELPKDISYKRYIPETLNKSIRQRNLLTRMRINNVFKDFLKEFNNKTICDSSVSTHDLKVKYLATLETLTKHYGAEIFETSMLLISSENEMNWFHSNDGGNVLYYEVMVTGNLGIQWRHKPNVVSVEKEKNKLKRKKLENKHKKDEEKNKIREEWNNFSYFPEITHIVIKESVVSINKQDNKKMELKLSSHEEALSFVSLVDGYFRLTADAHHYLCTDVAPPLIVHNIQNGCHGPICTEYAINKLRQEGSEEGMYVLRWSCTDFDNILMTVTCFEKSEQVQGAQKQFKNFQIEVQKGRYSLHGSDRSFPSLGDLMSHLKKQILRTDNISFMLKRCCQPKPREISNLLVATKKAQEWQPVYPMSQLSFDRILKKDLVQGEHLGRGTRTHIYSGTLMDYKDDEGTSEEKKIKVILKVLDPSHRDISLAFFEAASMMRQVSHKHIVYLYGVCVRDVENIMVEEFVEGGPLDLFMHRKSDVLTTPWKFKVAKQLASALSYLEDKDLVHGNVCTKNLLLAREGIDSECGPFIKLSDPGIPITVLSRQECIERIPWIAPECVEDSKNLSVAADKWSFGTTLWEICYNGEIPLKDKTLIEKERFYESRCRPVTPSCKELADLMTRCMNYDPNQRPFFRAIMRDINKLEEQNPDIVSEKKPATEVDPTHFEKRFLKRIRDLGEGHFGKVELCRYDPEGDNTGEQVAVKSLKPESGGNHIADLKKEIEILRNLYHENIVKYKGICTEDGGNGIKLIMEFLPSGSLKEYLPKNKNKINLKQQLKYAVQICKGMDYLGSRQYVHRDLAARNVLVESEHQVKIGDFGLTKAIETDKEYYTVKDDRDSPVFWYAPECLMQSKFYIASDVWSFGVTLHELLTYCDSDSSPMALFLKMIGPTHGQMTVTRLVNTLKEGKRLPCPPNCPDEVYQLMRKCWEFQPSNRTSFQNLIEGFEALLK

Assays:
[1] = target: T1, Tyrosine-protein kinase JAK1 (Homo sapiens, UniProt P23458); test: Inhibition of JAK1 in human whole blood assessed as inhibition of IL-6-induced pSTAT1
[2] = target: T1, Tyrosine-protein kinase JAK1; test: Inhibition of human recombinant JAK1

Work on O=C(Nc1nc2cccc(-c3ccc(CN4CCOCC4)cc3)n2n1)C1CC1 yielded a pIC50 [1] of 5.25 and a pIC50 [2] of 7.04.
